Literature values, collected in article PMC4717123, “The cytochrome P450 CYP6P4 is responsible for the high pyrethroid resistance in knockdown resistance-free Anopheles arabiensis” (Insect Biochemistry and Molecular Biology, 2016).

System: An. arabiensis populations from Ndjamena
Design: method as in Witzig et al., 2013
Conditions: Chad, 2009, ref Witzig et al., 2013; cited from earlier work

SMILES: CC1(C)C(C=C(Cl)Cl)C1C(=O)OCc1cccc(Oc2ccccc2)c1 (stereo not shown) [permethrin]
- resistance/susceptibility status: resistant
